# Antibody variant affinities, Ab-14 heavy chain, assay B

Data: MIT Lincoln Laboratory AlphaSeq set, Li et al. 2023, doi:10.1038/s41467-023-39022-2, as distributed in FLAb.

All variants were tested on one target, the spike HR2 peptide PDVDLGDISGINAS (SARS-CoV-2).

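The starting antibody came from a phage panning campaign against this peptide. These sequences belong to a second round, designed from the earlier measurements on random variants of the parent. Several design methods are mixed in this list. The assay is AlphaSeq: two haploid yeast populations carry antibody and antigen on their surface. The frequency of each diploid, read from paired DNA barcodes, reflects how well the two displayed proteins bind. The ratio of observed to expected reads was calibrated, replicate by replicate, on BCL2-family standards whose Kd was known from biolayer interferometry. The assay was run in six technical replicates.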

Parent: Ab-14, a human scFv built as VH, three GGGGS repeats, VL. Only the CDRs of the heavy chain vary.
VH: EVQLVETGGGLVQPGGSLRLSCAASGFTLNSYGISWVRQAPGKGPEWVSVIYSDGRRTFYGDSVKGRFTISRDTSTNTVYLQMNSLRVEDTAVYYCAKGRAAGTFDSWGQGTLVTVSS
VL: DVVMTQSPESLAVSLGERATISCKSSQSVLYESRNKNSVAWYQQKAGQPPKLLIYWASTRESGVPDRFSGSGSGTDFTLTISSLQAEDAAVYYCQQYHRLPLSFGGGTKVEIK

Variants are written as CDR1, CDR2 and CDR3 of the heavy chain (limits as in the source). Parent: GFTLNSYGIS, VIYSDGRRTFYGDSVK, GRAAGTFDS.
Affinities are written as log10 Kd with Kd in nM; a lower number is a better binder.
Averages over replicates are reported, and they cover detected replicates only.
An entry "nd" has no value in the source: the pair was not observed among the diploids in any replicate. This suggests poor binding but is not conclusive.
Order: sorted from the lowest average up, undetected variants last.
Three control strains display no target. For all heavy chain designs, 1% of the pairings with them gave a signal, with a median of 2.08 and one signal in twenty below 0.84, so weak values seen in few replicates may be background. For each scFv, signals with the empty controls are counted beside the result.

CDR-H1	CDR-H2	CDR-H3	log10 Kd (nM), mean	detected	empty controls
GFDLNEYGIS	VIYADGRRTFYTDSVK	GGNAGTFDQ	-1.38	6/6	0/18
GFDLNEYGIS	VIYADGVRTAYTDSVK	GNNAGTFDV	-1.18	6/6	1/18
GFNLDEYGIS	VIYADGRRTFYADSVK	GELAGTFDT	-0.98	6/6	0/18
GFNLDEYGIS	VIYADGRRTFYADSVK	GEVAGTFDT	-0.88	6/6	0/18
GFDLNEYGIS	VIYADGMRQAYADSVK	GENAGTFDV	-0.63	6/6	0/18
GFDLNEYGIS	VIYADGRRTFYADSVK	GNQAGTFDM	-0.58	6/6	0/18
GFDLNEYGIS	VIYADGRRTFYADNVK	GEVAGTFDV	-0.49	6/6	1/18
GFSLNSYGIS	VIYADGRRTFYGDSVK	GEAAGTFDA	-0.47	6/6	0/18
GFDLNEYGIS	VIYADGRRTAYSDSVK	GNVAGTFDK	-0.46	6/6	0/18
GFDLNEYGIS	VIYADGVRTAYSDSVK	GEVAGTFDV	-0.27	6/6	0/18
GFELNSYGIS	VIYADGRRTFYGDSVK	GEAAGTFDT	-0.24	6/6	0/18
GFDLNEYGIS	VIYADGMRTAYIDSVK	GNNAGTFDL	-0.19	6/6	0/18
GFDLNEYGIS	VIYADGVRTAYSDSVK	GTNAGTFDQ	-0.13	6/6	2/18
GFTLNEYGIS	VIYSDGRRTMYGDSVK	GRAAGTFIS	0.01	6/6	0/18
GFDLNEYGIS	VIYADGQRTVYADSVK	GNTAGTFDV	0.02	6/6	0/18
GFDLNEYGIS	VIYADGLRTAYADSVK	GENAGTFDQ	0.05	6/6	1/18
GFELDEYGIS	VIYADGKRKAYDQAVK	GKTGGVILD	0.07	1/6	0/18
GFTLNEYGIS	VIYSDGRRTFYGDSVK	GREAGTFDD	0.14	6/6	1/18
GMDIENYGIS	VIYADGKRKAYAQKFK	GHTGGTFAD	0.15	1/6	0/18
GFDLNEYGIS	VIYADGKRTAYVDSVK	GNTAGTFDI	0.19	6/6	1/18
GFSLNSYGIS	VIYSDGRRTFYADSVK	GSQAGTFDS	0.22	6/6	0/18
GFTLNSYGIS	VIYADGRRTFYGDSVK	GRVAGTFDS	0.23	12/12	1/36
GFDLNSYGIS	VIYSDGRRTFYKDSVK	GAAAGTFDS	0.33	6/6	0/18
GFDLNSYGIS	VIYSDGRRTFYGDSVK	GHAAGTFDL	0.47	6/6	1/18
GFSLNSYGIS	VIYSDGRRTFYADSVK	GRAAGTFDL	0.52	5/6	0/18
GFSLNEYGIS	VIYSDGRRTFYGDSVK	GSAAGTFDR	0.62	6/6	0/18
GFELNSYGIS	VIYADGRRTFYGDSVK	GRTAGTFDS	0.72	6/6	0/18
GFWLNDYGIS	VIYSDGRRTFYADSVK	GRAAGTFDL	0.92	6/6	0/18
GFTLNSYGIS	VIYSDGLRTFYEDSVK	GREAGTFDS	1.12	6/6	0/18
GFTLNSYGIS	VIYSDGRRTSYLDSVK	GRAAGTFDS	1.24	6/6	0/18
GDSLEEYGIS	VIYADGKRTAYKNKAK	GQVAGYFDV	1.49	1/6	0/18
GFTVNEYGIS	VIYSDGRRTFYGDSVS	GRAAGTFDQ	1.50	2/6	0/18
GFPLNSYGIS	VIYSDGRRTSYGDSVK	GEAASTFDS	1.54	1/6	1/18
GFHLNSYGIS	VIYSDGRRTFYADDVK	GNAAGTFDS	1.56	5/6	0/18
GFTLNMYGIS	VIYSDGRRTMYIDSVK	GRAAGTFDS	1.59	2/6	0/18
GFTLESYGIS	VIYSDGRRTFYGDKVK	GRTAGTFDS	1.68	3/6	1/18
GTTLNSYGIS	VIYSDGLRTFYNDSVK	GRAAKTFEV	1.84	1/6	0/18
GFTLNSYGIK	VIYSDGRRTFYGDSVK	GRASGTMNS	1.89	1/6	0/18
GFTLNSYGIS	VIYADGRRTFYGDSFK	GYAAGTFDS	1.95	3/6	1/18
GFDLNEYGIS	VIYADGRRTQYIDSVK	GEQAGTFDN	1.97	6/6	0/18
GFWLNEYGIS	VIYSDGRRTFYGDSVK	GRTAGTFDE	2.02	2/6	0/18
GFDLNEYGIS	VIYADGRRTAYTDSVK	GQNAGTFDQ	2.35	3/6	0/18
GFKLDEYGIS	VIYADGLRMHYANAVK	GEGAGTFTT	2.56	4/6	1/18
GFTLNSYGIS	VIYSSGRRTFYSDSVK	GRAGGTFDS	2.58	2/6	0/18
GFDLREMGIS	VIYADGRRVAYNDKVK	GNLTGTFDQ	nd	0/6	0/18
GFDLDEQGIS	VIYADGLRVAYKDRVK	GAGSGVIDM	nd	0/6	0/18
GFSIDEYGIS	VIYADGVRTAVDPSFK	GQMAGFFDE	nd	0/6	0/18
GFTLNSYGIS	VIYSDGRRTFYGQSVK	GRADGTFDN	nd	0/6	0/18
GFDVMEYGIS	VIYADGMRQAYANKVK	GGITDSGLI	nd	0/6	0/18
GFTLNDYGIS	VIYSAGRRTFYGDSVK	GRAALTFIS	nd	0/6	0/18
GFGLDEYGIS	VIYADGMRSNYATSVK	GYQAGVISV	nd	0/6	0/18
GFSLDEYGIS	VIYADGVRKHYADSVK	GNIAGYYFA	nd	0/6	0/18
GFTLNSYGQS	VIYADGRRGFYGDSVK	GRAAGLNKS	nd	0/6	0/18
GQDLNEYGIS	VIYADGLRTAYLNNFK	GVNAGFDQY	nd	0/6	0/18

The opening 4 entries, copied out:

| CDR-H1 | CDR-H2 | CDR-H3 | log10 Kd (nM), mean | detected | empty controls |
|---|---|---|---|---|---|
| GFDLNEYGIS | VIYADGRRTFYTDSVK | GGNAGTFDQ | -1.38 | 6/6 | 0/18 |
| GFDLNEYGIS | VIYADGVRTAYTDSVK | GNNAGTFDV | -1.18 | 6/6 | 1/18 |
| GFNLDEYGIS | VIYADGRRTFYADSVK | GELAGTFDT | -0.98 | 6/6 | 0/18 |
| GFNLDEYGIS | VIYADGRRTFYADSVK | GEVAGTFDT | -0.88 | 6/6 | 0/18 |

The authors' rule: three or more of the six replicates give a measured affinity, fewer mean a poor binder.
The range of this assay differs from that of the first round, and the authors advise against merging the two.
A sequence that the file lists under several names has all its replicates pooled.